ChEMBL document CHEMBL4382216, “Asymmetric synthesis and biological evaluation of imidazole- and oxazole-containing synthetic lipoxin A4 mimetics (sLXms)” (Eur J Med Chem, 2019)

Key:
Type in all cases: cell-based
[1] = target: T1, N-formyl peptide receptor 2 (Homo sapiens) (UniProt P25090); experiment: Agonist activity at ALX/FPR2 in human THP1 cells harboring NF-kB-Luc assessed as inhibition of LPS-induced NFkB signalling activation by measuring NF-kB activation level at 10^-12 M pretreated for 30 mins followed by LPS stimulation for 24 hrs by luciferase reporter gene assay; parameters: scale not given: the % may be the effect or the level left
T1 sequence (whole entry): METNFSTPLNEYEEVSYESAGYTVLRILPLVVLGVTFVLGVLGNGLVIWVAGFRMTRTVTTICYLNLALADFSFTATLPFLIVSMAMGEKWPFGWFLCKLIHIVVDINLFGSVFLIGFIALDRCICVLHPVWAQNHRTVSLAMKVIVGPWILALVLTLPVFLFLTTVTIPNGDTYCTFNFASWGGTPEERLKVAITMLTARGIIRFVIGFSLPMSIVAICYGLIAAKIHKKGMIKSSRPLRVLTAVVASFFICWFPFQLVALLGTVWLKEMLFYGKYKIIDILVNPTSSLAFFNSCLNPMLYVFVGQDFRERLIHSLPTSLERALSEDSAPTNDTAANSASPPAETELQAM

[2] = target: T1, N-formyl peptide receptor 2 (Homo sapiens); experiment: Agonist activity at ALX/FPR2 in human THP1 cells harboring NF-kB-Luc assessed as inhibition of LPS-induced NFkB signalling activation by measuring NF-kB activation level at 10^-11 M pretreated for 30 mins followed by LPS stimulation for 24 hrs by luciferase reporter gene assay; parameters: scale not given: the % may be the effect or the level left
[3] = target: T1, N-formyl peptide receptor 2 (Homo sapiens); experiment: Agonist activity at ALX/FPR2 in human THP1 cells harboring NF-kB-Luc assessed as inhibition of LPS-induced NFkB signalling activation by measuring NF-kB activation level at 10^-10 M pretreated for 30 mins followed by LPS stimulation for 24 hrs by luciferase reporter gene assay; parameters: scale not given: the % may be the effect or the level left
[4] = target: T1, N-formyl peptide receptor 2 (Homo sapiens); experiment: Agonist activity at ALX/FPR2 in human THP1 cells harboring NF-kB-Luc assessed as inhibition of LPS-induced NFkB signalling activation by measuring NF-kB activation level at 10^-9 M pretreated for 30 mins followed by LPS stimulation for 24 hrs by luciferase reporter gene assay; parameters: scale not given: the % may be the effect or the level left
[5] = target: T1, N-formyl peptide receptor 2 (Homo sapiens); experiment: Agonist activity at ALX/FPR2 in human THP1 cells harboring NF-kB-Luc assessed as inhibition of LPS-induced NFkB signalling activation by measuring NF-kB activation level at 10^-8 M pretreated for 30 mins followed by LPS stimulation for 24 hrs by luciferase reporter gene assay; parameters: scale not given: the % may be the effect or the level left
[6] = target: T1, N-formyl peptide receptor 2 (Homo sapiens); experiment: Agonist activity at ALX/FPR2 in human THP1 cells harboring NF-kB-Luc assessed as inhibition of LPS-induced NFkB signalling activation by measuring NF-kB activation level at 10^-7 M pretreated for 30 mins followed by LPS stimulation for 24 hrs by luciferase reporter gene assay; parameters: scale not given: the % may be the effect or the level left
[7] = target: T1, N-formyl peptide receptor 2 (Homo sapiens); experiment: Agonist activity at ALX/FPR2 in human THP1 cells harboring NF-kB-Luc assessed as inhibition of LPS-induced NFkB signalling activation by measuring NF-kB activation level at 10^-6 M pretreated for 30 mins followed by LPS stimulation for 24 hrs by luciferase reporter gene assay; parameters: scale not given: the % may be the effect or the level left
Homo sapiens [8] = organism: Homo sapiens; experiment: Activation of Luc-fused NFkB (unknown origin) expressed in non-stimulated human THP1 cells assessed as relative luminescence unit at 10^-11 M after 24 hrs by luciferase reporter gene assay (reference value: 100%)
Homo sapiens [9] = organism: Homo sapiens; experiment: Activation of Luc-fused NFkB (unknown origin) expressed in non-stimulated human THP1 cells assessed as relative luminescence unit at 10^-8 M after 24 hrs by luciferase reporter gene assay (reference value: 100%)
[10] = target: T1, N-formyl peptide receptor 2 (Homo sapiens); experiment: Agonist activity at ALX/FPR2 in human THP1 cells harboring NF-kB-Luc assessed as inhibition of LPS-induced NFkB signalling activation by measuring IL-1beta secretion at 10^-11 M pretreated for 30 mins followed by LPS stimulation for 24 hrs by electrochemiluminescence assay; parameters: scale not given: the % may be the effect or the level left
[11] = target: T1, N-formyl peptide receptor 2 (Homo sapiens); experiment: Agonist activity at ALX/FPR2 in human THP1 cells harboring NF-kB-Luc assessed as inhibition of LPS-induced NFkB signalling activation by measuring IL-1beta secretion at 10^-9 M pretreated for 30 mins followed by LPS stimulation for 24 hrs by electrochemiluminescence assay; parameters: scale not given: the % may be the effect or the level left
[12] = target: T1, N-formyl peptide receptor 2 (Homo sapiens); experiment: Agonist activity at ALX/FPR2 in human THP1 cells harboring NF-kB-Luc assessed as inhibition of LPS-induced NFkB signalling activation by measuring IL-1beta secretion at 10^-7 M pretreated for 30 mins followed by LPS stimulation for 24 hrs by electrochemiluminescence assay; parameters: scale not given: the % may be the effect or the level left
[13] = target: T1, N-formyl peptide receptor 2 (Homo sapiens); experiment: Agonist activity at ALX/FPR2 in human THP1 cells harboring NF-kB-Luc assessed as inhibition of LPS-induced NFkB signalling activation by measuring IL-6 secretion at 10^-11 M pretreated for 30 mins followed by LPS stimulation for 24 hrs by electrochemiluminescence assay; parameters: scale not given: the % may be the effect or the level left
[14] = target: T1, N-formyl peptide receptor 2 (Homo sapiens); experiment: Agonist activity at ALX/FPR2 in human THP1 cells harboring NF-kB-Luc assessed as inhibition of LPS-induced NFkB signalling activation by measuring IL-6 secretion at 10^-9 M pretreated for 30 mins followed by LPS stimulation for 24 hrs by electrochemiluminescence assay; parameters: scale not given: the % may be the effect or the level left
[15] = target: T1, N-formyl peptide receptor 2 (Homo sapiens); experiment: Agonist activity at ALX/FPR2 in human THP1 cells harboring NF-kB-Luc assessed as inhibition of LPS-induced NFkB signalling activation by measuring IL-6 secretion at 10^-7 M pretreated for 30 mins followed by LPS stimulation for 24 hrs by electrochemiluminescence assay; parameters: scale not given: the % may be the effect or the level left
[16] = target: T1, N-formyl peptide receptor 2 (Homo sapiens); experiment: Agonist activity at ALX/FPR2 in human THP1 cells harboring NF-kB-Luc assessed as inhibition of LPS-induced NFkB signalling activation by measuring IL-12p70 secretion at 10^-11 M pretreated for 30 mins followed by LPS stimulation for 24 hrs by electrochemiluminescence assay; parameters: scale not given: the % may be the effect or the level left
[17] = target: T1, N-formyl peptide receptor 2 (Homo sapiens); experiment: Agonist activity at ALX/FPR2 in human THP1 cells harboring NF-kB-Luc assessed as inhibition of LPS-induced NFkB signalling activation by measuring IL-12p70 secretion at 10^-9 M pretreated for 30 mins followed by LPS stimulation for 24 hrs by electrochemiluminescence assay; parameters: scale not given: the % may be the effect or the level left
[18] = target: T1, N-formyl peptide receptor 2 (Homo sapiens); experiment: Agonist activity at ALX/FPR2 in human THP1 cells harboring NF-kB-Luc assessed as inhibition of LPS-induced NFkB signalling activation by measuring IL-12p70 secretion at 10^-7 M pretreated for 30 mins followed by LPS stimulation for 24 hrs by electrochemiluminescence assay; parameters: scale not given: the % may be the effect or the level left
[19] = target: T1, N-formyl peptide receptor 2 (Homo sapiens); experiment: Agonist activity at ALX/FPR2 in human THP1 cells harboring NF-kB-Luc assessed as inhibition of LPS-induced NFkB signalling activation by measuring IFNgamma secretion at 10^-11 M pretreated for 30 mins followed by LPS stimulation for 24 hrs by electrochemiluminescence assay; parameters: scale not given: the % may be the effect or the level left
[20] = target: T1, N-formyl peptide receptor 2 (Homo sapiens); experiment: Agonist activity at ALX/FPR2 in human THP1 cells harboring NF-kB-Luc assessed as inhibition of LPS-induced NFkB signalling activation by measuring IFNgamma secretion at 10^-9 M pretreated for 30 mins followed by LPS stimulation for 24 hrs by electrochemiluminescence assay; parameters: scale not given: the % may be the effect or the level left
[21] = target: T1, N-formyl peptide receptor 2 (Homo sapiens); experiment: Agonist activity at ALX/FPR2 in human THP1 cells harboring NF-kB-Luc assessed as inhibition of LPS-induced NFkB signalling activation by measuring IFNgamma secretion at 10^-7 M pretreated for 30 mins followed by LPS stimulation for 24 hrs by electrochemiluminescence assay; parameters: scale not given: the % may be the effect or the level left
[22] = target: T1, N-formyl peptide receptor 2 (Homo sapiens); experiment: Agonist activity at ALX/FPR2 in human THP1 cells harboring NF-kB-Luc assessed as inhibition of LPS-induced NFkB signalling activation by measuring TNFalpha secretion at 10^-11 M pretreated for 30 mins followed by LPS stimulation for 24 hrs by electrochemiluminescence assay; parameters: scale not given: the % may be the effect or the level left
[23] = target: T1, N-formyl peptide receptor 2 (Homo sapiens); experiment: Agonist activity at ALX/FPR2 in human THP1 cells harboring NF-kB-Luc assessed as inhibition of LPS-induced NFkB signalling activation by measuring TNFalpha secretion at 10^-9 M pretreated for 30 mins followed by LPS stimulation for 24 hrs by electrochemiluminescence assay; parameters: scale not given: the % may be the effect or the level left
[24] = target: T1, N-formyl peptide receptor 2 (Homo sapiens); experiment: Agonist activity at ALX/FPR2 in human THP1 cells harboring NF-kB-Luc assessed as inhibition of LPS-induced NFkB signalling activation by measuring TNFalpha secretion at 10^-7 M pretreated for 30 mins followed by LPS stimulation for 24 hrs by electrochemiluminescence assay; parameters: scale not given: the % may be the effect or the level left

Activity [1]: 96.8% | Activity [2]: 100% | Activity [3]: 99.4% | Activity [4]: 100% | Activity [5]: 86.7% | Activity [6]: 87.9% | Activity [7]: 82.2% | Activity [10]: 238% | Activity [11]: 259% | Activity [12]: 313% | Activity [13]: 95.1% | Activity [14]: 110% | Activity [15]: 118% | Activity [16]: 191% | Activity [17]: 214% | Activity [18]: 290% | Activity [19]: 185% | Activity [20]: 197% | Activity [21]: 11.7% | Activity [22]: 82.2% | Activity [23]: 86.3% | Activity [24]: 116%
SMILES: COC(=O)CCC[C@H](O)[C@H](O)/C=C/c1nc(C)n(C)c1[C@H](C)O
Activity (Homo sapiens [8]): 2.9% | Activity (Homo sapiens [9]): 2.9%
